# Source: PMC4920374 (Bioorganic & medicinal chemistry, 2016)
# What was measured:
# [1] = test system: KB (epidermoid carcinoma of the nasopharynx); experiment: Antiproliferative SRB assay, KB; format: cell-based, human
# [2] = test system: KB-vin (vincristine-resistant KB subline); experiment: Antiproliferative SRB assay, KB-vin; format: cell-based, human
# [3] = test system: HTCL panel: A549, KB, KB-vin, DU145; experiment: cells; details: Homo sapiens, read-out: GI50 across HTCL panel
SMILES,GI50 KB [1] [µM],GI50 KB-vin [2] [µM],GI50 [3] [µM]
"COc1ccc(Nc2nc(NC3CCCC3)c3ccccc3n2)cc1 [4a, 4-(N-Cyclopentyl)amino-2-(4-methoxyphenyl)aminoquinazoline]",11.1,12.6,
"COc1ccc(Nc2nc(NCCCO)c3ccccc3n2)cc1 [4b, 4-(3-Hydroxypropyl)amino-2-(4-methoxyphenyl)aminoquinazoline]",20.3,17.1,< 20
"CCCNc1nc(Nc2ccc(OC)cc2)nc2ccccc12 [4c, 2-(4-Methoxyphenyl)amino-4-propylaminoquinazoline]",5.33,5.09,
"CNc1nc(Nc2ccc(OC)cc2)nc2ccccc12 [4d, 2-(4-Methoxyphenyl)amino-4-methylaminoquinazoline]",14.8,17.5,
"COc1ccc(Nc2nc(N3CCOCC3)c3ccccc3n2)cc1 [4e, 2-(4-Methoxyphenyl)amino-4-(N-morpholino)quinazoline]",21.0,15.3,
"COc1ccc(Nc2nc(NC3CC3)c3ccccc3n2)cc1 [4f, 4-(N-cyclopropyl)amino-2-(4-methoxyphenyl)aminoquinazoline]",13.3,13.4,
"COc1ccc(N(C)c2nc(NC3CCCC3)c3ccccc3n2)cc1 [5a, 4-(N-Cyclopentyl)amino-2-(N-(4-methoxyphenyl)-N-methyl)aminoquinazoline]",11.7,,
COc1ccc(N(C)c2nc(NCCCO)c3ccccc3n2)cc1 [5b],24.8,30.8,
"CCCNc1nc(N(C)c2ccc(OC)cc2)nc2ccccc12 [5c, 2-(N-(4-Methoxyphenyl)-N-methyl)amino-4-propylaminoquinazoline]",13.7,,
"CNc1nc(N(C)c2ccc(OC)cc2)nc2ccccc12 [5d, 2-(N-(4-Methoxyphenyl)-N-methyl)amino-4-methylaminoquinazoline]",18.7,22.9,
"Nc1ccc(Nc2nc(NC3CCCC3)c3ccccc3n2)cc1 [6b, 2-(4-Aminophenyl)amino-4-(N-cyclopentyl)aminoquinazoline]",17.4,21.7,
"Fc1ccc(Nc2nc(NC3CCCC3)c3ccccc3n2)cc1 [6c, 4-(N-Cyclopentyl)amino-2-(4-fluorophenyl)aminoquinazoline]",13.8,12.3,
"Oc1ccc(Nc2nc(NC3CCCC3)c3ccccc3n2)cc1 [6d, 4-(N-Cyclopentyl)amino-2-(4-hydroxyphenyl)aminoquinazoline]",12.1,13.6,
"O=C(O)c1ccc(Nc2nc(NC3CCCC3)c3ccccc3n2)cc1 [6e, 2-(4-Carboxyphenyl)amino-4-(N-cyclopentyl)aminoquinazoline]",25.2,19.8,
"N#Cc1ccc(Nc2nc(NCCCO)c3ccccc3n2)cc1 [7a, 2-(4-Cyanophenyl)amino-4-((3-hydroxypropyl)amino)quinazoline]",23.7,4.31,
"CCCNc1nc(Nc2ccc(F)cc2)nc2ccccc12 [7d, 4-Propylamino-2-(4-fluorophenyl)aminoquinazoline]",2.9,2.5,2.5 to 4.3
